pIC50: −log10 of the molar value.
How the values were obtained:
[1] = target: BRG-1 (Homo sapiens, UniProt P51532); assay: ATPase catalytic activity assay (ADP-Glo), BRG-1; conditions: read-out: BRG1 IC50, Table 10
[2] = target: BRM (Homo sapiens, UniProt P51531); assay: ATPase catalytic activity assay (ADP-Glo), BRM; assay type: biochemical; conditions: Table 10; for Ratio (BRG1 IC50 (μM) divided by BRM IC50 (μM)): ATPase assay, selectivity BRG1/BRM; for pIC50: read-out: BRM IC50, ATPase catalytic activity assay (ADP-Glo)

By UniProt entry, the sequences of proteins in these tests, tags left out.
UniProt P51532, whole entry: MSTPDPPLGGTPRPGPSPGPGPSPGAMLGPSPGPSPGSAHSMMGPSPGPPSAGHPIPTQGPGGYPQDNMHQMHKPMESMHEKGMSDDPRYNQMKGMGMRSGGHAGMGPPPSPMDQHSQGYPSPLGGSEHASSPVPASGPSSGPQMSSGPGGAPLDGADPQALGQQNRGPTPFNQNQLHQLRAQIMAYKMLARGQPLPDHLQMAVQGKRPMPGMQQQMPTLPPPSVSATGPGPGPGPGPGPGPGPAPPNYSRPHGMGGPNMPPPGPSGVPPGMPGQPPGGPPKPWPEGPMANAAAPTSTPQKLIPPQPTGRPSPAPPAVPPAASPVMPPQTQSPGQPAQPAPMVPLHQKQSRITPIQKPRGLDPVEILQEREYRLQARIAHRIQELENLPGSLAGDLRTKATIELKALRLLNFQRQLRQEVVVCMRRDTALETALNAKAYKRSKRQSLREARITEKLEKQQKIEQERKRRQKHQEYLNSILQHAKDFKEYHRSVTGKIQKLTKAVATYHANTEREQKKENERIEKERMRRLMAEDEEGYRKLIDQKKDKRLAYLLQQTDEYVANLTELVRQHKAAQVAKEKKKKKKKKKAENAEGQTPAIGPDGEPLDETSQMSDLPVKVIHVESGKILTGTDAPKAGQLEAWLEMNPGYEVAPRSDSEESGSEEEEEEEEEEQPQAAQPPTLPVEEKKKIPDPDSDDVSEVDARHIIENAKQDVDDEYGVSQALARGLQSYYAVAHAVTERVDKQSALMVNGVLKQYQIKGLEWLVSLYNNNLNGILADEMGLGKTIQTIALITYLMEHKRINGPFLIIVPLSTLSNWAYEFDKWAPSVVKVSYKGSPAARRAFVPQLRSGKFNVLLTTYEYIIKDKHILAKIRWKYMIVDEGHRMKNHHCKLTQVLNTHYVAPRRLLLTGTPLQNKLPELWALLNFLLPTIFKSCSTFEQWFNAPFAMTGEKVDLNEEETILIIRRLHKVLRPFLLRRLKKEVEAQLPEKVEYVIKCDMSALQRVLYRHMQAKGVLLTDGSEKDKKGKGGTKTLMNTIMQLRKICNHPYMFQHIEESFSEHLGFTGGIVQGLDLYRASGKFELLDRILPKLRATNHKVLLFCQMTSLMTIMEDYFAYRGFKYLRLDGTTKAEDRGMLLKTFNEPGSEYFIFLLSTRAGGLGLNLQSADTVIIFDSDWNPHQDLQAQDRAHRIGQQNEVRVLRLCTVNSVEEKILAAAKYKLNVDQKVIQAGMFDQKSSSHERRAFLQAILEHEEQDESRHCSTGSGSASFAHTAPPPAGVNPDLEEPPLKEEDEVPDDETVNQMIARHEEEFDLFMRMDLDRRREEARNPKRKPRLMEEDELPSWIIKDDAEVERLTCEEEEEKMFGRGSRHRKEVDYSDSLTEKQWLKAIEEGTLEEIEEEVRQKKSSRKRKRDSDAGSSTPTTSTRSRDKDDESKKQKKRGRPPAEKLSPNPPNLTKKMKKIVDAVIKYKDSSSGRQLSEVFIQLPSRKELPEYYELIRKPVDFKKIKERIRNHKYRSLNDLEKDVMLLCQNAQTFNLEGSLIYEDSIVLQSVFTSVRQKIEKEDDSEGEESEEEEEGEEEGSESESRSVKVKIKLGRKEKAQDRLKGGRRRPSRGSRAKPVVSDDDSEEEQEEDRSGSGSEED
UniProt P51531, whole entry: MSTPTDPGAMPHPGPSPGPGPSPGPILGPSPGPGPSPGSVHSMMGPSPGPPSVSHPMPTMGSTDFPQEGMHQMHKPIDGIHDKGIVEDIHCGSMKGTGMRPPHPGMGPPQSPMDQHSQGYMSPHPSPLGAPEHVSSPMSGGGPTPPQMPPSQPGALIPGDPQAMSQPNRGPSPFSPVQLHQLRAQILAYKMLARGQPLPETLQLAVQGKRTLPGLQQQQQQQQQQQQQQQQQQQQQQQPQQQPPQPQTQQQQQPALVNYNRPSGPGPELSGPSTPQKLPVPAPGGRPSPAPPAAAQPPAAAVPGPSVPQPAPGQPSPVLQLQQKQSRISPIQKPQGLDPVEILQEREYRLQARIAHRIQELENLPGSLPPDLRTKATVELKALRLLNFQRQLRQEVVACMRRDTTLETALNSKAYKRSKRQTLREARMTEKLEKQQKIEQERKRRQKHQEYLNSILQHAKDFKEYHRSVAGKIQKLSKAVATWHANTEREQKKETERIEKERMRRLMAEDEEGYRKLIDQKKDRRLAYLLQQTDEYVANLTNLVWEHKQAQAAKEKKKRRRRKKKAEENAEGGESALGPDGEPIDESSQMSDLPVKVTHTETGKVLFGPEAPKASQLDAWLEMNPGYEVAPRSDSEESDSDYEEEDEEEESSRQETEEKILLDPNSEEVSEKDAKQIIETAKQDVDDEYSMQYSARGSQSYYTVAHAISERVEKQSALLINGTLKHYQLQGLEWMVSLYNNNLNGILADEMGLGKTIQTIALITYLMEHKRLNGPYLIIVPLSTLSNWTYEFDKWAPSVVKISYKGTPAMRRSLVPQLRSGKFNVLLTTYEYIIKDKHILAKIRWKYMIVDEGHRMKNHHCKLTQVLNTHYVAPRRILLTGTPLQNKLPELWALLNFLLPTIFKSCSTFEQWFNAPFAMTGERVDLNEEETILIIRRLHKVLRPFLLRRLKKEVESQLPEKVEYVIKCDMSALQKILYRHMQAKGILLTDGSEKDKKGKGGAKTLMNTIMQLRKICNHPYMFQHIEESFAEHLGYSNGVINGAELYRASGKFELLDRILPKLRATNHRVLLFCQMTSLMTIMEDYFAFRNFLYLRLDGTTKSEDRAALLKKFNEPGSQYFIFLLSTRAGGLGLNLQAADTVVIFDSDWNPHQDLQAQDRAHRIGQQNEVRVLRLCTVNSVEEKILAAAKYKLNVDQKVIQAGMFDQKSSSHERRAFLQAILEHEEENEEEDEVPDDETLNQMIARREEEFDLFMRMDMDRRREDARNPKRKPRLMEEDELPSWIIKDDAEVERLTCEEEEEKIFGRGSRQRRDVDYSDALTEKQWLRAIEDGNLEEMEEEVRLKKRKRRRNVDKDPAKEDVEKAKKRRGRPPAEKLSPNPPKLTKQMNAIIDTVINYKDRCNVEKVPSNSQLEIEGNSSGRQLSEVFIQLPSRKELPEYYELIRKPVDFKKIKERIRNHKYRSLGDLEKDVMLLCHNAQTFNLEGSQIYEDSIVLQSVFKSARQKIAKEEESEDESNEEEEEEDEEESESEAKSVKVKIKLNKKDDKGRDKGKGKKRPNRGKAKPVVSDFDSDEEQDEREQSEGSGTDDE

C[C@@H]1C[C@H]1c1ccc2c(n1)N(c1ccc3cnc(CNC(=O)c4cc(F)c5c(c4)S(=O)(=O)[C@@H](F)CCO5)cc3n1)CCO2 was tested, and the pIC50 [1] was 7.40, the “Ratio (BRG1 IC50 (μM) divided by BRM IC50 (μM))” value [2] was 21.51 and the pIC50 [2] was 8.72.

In the case of COc1nc(C(C)(F)F)ccc1-c1ccc2cnc(CNC(=O)c3ccc4c(c3)S(=O)(=O)[C@@H](F)CCO4)cc2n1, the pIC50 [1] was 7.07, the “Ratio (BRG1 IC50 (μM) divided by BRM IC50 (μM))” value [2] was 10.70 and the pIC50 [2] was 8.10.
